Only a part is listed here, and it is no random draw. The source made the active and inactive calls.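 How the source made its calls: active means activation of at least 8% versus controls, or a plate z-score of at least 8; inactive means the rest.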
Assay: compounds raising alpha-dystroglycan glycosylation – uHTS, Pro5-aDG cells, AlphaScreen, primary screen (AID 624168);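 further: Pro5 are CHO cells carrying HIG-tagged alpha-DG that lacks glycosylation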
Details: alpha-DG glycosylation AlphaScreen (IIH6), at 10 µM, active compounds read high, 0% Pro5, 100% B10-LARGE cell signal

SMILES | activation
COC(=O)C1(C)COP(=O)(N2CCCCCC2)OC1 (centres undefined) | inactive: -0.1%
ClCCSc1nnc(-c2cccnc2)o1 | inactive: 0.3%
CCN(CC)C(=S)SC(NC=O)C(Cl)(Cl)Cl (centres undefined) | inactive: 0.7%
O=C(OC1CN2CCC1CC2)c1cccc2[nH]cnc12 (centres undefined) | inactive: 0%
CC(C)NC(=O)NP(=O)(Oc1ccccc1)Oc1ccccc1 | inactive: 0.4%
O=[N+]([O-])c1cc([N+](=O)[O-])c(-c2ccn[nH]2)s1 | active: 9.5%
CC1CCNP(=O)(N(CCCl)CCCl)O1 (centres undefined) | inactive: -0.1%
O=C(O)C(O)c1ccc(N(CCCl)CCCl)cc1 (centres undefined) | inactive: -0.1%
CCOC(=O)Nc1ccc([As](=O)(O)O)c(O)c1 | inactive: 0.1%
CCCCOc1ccc(C(=O)NCC2(N3CCCCC3)CCCCC2)cc1OC | inactive: 0%
Cc1cc(SC(NC(=O)c2ccccc2)C(Cl)(Cl)Cl)nc(C(C)C)n1 (centres undefined) | inactive: 1.8%
COP(=O)(OC)N1CC1c1ccccc1 (centres undefined) | inactive: -0.3%
CCOC(=O)Nc1cccc([As](=O)(O)O)c1 | inactive: 0%
O=[N+]([O-])c1ccc(Nc2ccc(Oc3ccc([N+](=O)[O-])cc3[N+](=O)[O-])cc2)c([N+](=O)[O-])c1 | inactive: 0%
Cc1cc(SC(NC=O)C(Cl)(Cl)Cl)ncn1 (centres undefined) | inactive: 0.3%
O=P(Nc1ccccn1)(c1cccc2ccccc12)c1cccc2ccccc12 | inactive: -0.1%
COP1(=S)c2c(C)nn(CCC#N)c2N=C(c2ccc(F)cc2)N1C (centres undefined) | inactive: 0%
COC(=O)C1(C)COP(=O)(N2CCCC2)OC1 (centres undefined) | inactive: 0%
O=C(COc1ccccc1)OC1CN2CCC1CC2 (centres undefined) | inactive: -0.4%
O=C(Nc1ccncc1[N+](=O)[O-])c1ccc([N+](=O)[O-])cc1[N+](=O)[O-] | inactive: 0.5%
O=C(O)C(=O)c1ccc(N(CCCl)CCCl)cc1 | inactive: 0%
CCOC(=O)c1ccc(NC(=O)C(C)(CCl)SC)cc1 (centres undefined) | inactive: -0.1%
O=C(OC1CN2CCC1CC2)c1cccc([N+](=O)[O-])c1 (centres undefined) | inactive: 0%
CSc1ccc(Nc2c([N+](=O)[O-])cc([N+](=O)[O-])cc2[N+](=O)[O-])cc1 | inactive: -0.2%
CCC(C)N(CC(C)C)C(=S)SC(NC(C)=O)C(Cl)(Cl)Cl (centres undefined) | inactive: -0.3%
CN(CCCl)Cc1cc(Cl)c(NC2=NCCN2)c(Cl)c1 | inactive: 0.1%
CCOP(=O)(Nc1ccc(C)cn1)OCC | inactive: 0%
CCC1=CC2Cc3nc4ccc(Cl)cc4c(N)c3C(C1)C2 (centres undefined) | active: 3.4%
O=P1(Nc2ccccn2)COc2ccccc2OC1 | inactive: 0.6%

Reference: PubChem BioAssay AID624168 (Sanford-Burnham Center for Chemical Genomics, 2012)
